# Binding of CDR-mutated scFvs to a peptide of the spike HR2 region

Binding partner: SARS-CoV-2 spike HR2 peptide, sequence PDVDLGDISGINAS.

The variants keep the heavy chain, the linker and the frameworks of Ab-95 (scFv order VH, a 15-residue (Gly4Ser)3 linker, VL).
VH: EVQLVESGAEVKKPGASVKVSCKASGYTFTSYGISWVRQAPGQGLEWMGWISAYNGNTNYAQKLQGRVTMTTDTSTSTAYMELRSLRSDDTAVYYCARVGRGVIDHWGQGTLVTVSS
VL: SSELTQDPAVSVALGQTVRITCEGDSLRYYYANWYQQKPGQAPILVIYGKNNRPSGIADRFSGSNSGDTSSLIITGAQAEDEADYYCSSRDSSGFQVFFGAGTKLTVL

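Phage display of a naive human antibody library on the peptide gave the parent. AAYL52 was designed without a model: most single CDR substitutions and a random sample of double and triple ones. In AlphaSeq, yeast of one mating type display the scFv and yeast of the other type display the target. Mating (16 h, 30 °C) was followed by selection of diploids and sequencing of their barcodes. A regression on co-assayed BCL2-family reference pairs converts the normalised counts of each replicate to an apparent Kd. Each pool was mated in three replicate cultures.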

Positions count from residue 1 of the parent VL; Y31Q puts Q in place of Y. Every variant below is changed at G94 of the VL (sequential numbering). Kd is apparent (estimated from mating counts) and averaged on the log scale over replicates with a signal. Smaller is tighter. An entry "nd" has no value in the source: the pair was not observed among the diploids in any replicate. This suggests poor binding but is not conclusive. The list is sorted by this average, lowest first, undetected variants last. Parent in this assay: reference entry 200 nM, copy in this library 180 nM. Three control strains display no target. For library AAYL52, 28% of the pairings with them gave a signal, with a median of 8.2 µM and one signal in twenty below 800 nM, so weak values seen in few replicates may be background.

The variant Y31Q G94Y gave 16 nM (3 of 3 replicates).
The variant S88A S92A G94P gave 38 nM (3 of 3 replicates).
The variant D25Y S26D G94H gave 130 nM (3 of 3 replicates).
The variant S88R D91W G94C gave 250 nM (3 of 3 replicates).
The variant R53T G94A F98A gave 430 nM (3 of 3 replicates).
The variant P54T G94I F95H gave 760 nM (3 of 3 replicates).
The variant K50H G94I gave 1.1 µM (2 of 3 replicates).
The variant E23Q Y31W G94T gave 1.4 µM (3 of 3 replicates).
The variant Y29C N51G G94R gave 3.3 µM (2 of 3 replicates).
The variant G24P G94N gave 5.5 µM (2 of 3 replicates).
The variant N52H G94V V97D gave 7.6 µM (3 of 3 replicates).
The variant K50S S89D G94F gave 7.9 µM (3 of 3 replicates).
The variant N51Y N52M G94A gave 13 µM (2 of 3 replicates).
The variant Y29H N51M G94P gave 13 µM (2 of 3 replicates).
The variant Y31V G94E F98E gave 17 µM (2 of 3 replicates).
The variant G49T R53H G94A gave 17 µM (1 of 3 replicates).
The variant N52R G94W F98W gave 19 µM (2 of 3 replicates).
The variant K50C D91H G94W gave 27 µM (3 of 3 replicates).
The variant L27Y G94L V97S gave 34 µM (1 of 3 replicates).
The variant R53C P54F G94D gave 34 µM (3 of 3 replicates).
The variant N52P S93G G94R gave 38 µM (2 of 3 replicates).
The variant G24N K50P G94Q gave 140 µM (2 of 3 replicates).
The variant S55R S93Q G94P gave nd (0 of 3 replicates).
The variant L27W G94T gave nd (0 of 3 replicates).
The variant E23R G94M F98C gave nd (0 of 3 replicates).
The variant R53E S89G G94E gave nd (0 of 3 replicates).
The variant G24T R53L G94P gave nd (0 of 3 replicates).
The variant P54W S89Q G94R gave nd (0 of 3 replicates).
The variant L27M G49Y G94S gave nd (0 of 3 replicates).
The variant S88Y G94Q gave nd (0 of 3 replicates).

Values reported by Engelhart et al. 2022, doi:10.1038/s41597-022-01779-4 (FLAb copy).